Ki data for one compound are collected here from ChEMBL document CHEMBL1122942, “Conformationally defined adrenergic agents. 1. Design and synthesis of novel alpha 2 selective adrenergic agents: electrostatic repulsion based conformational prototypes” (J Med Chem, 1985).

Chains of the proteins cited; added tags and fusions are not shown. Lines headed by an entry give the natural chain unless they say otherwise; changes in a name come on top.
UniProt P15823: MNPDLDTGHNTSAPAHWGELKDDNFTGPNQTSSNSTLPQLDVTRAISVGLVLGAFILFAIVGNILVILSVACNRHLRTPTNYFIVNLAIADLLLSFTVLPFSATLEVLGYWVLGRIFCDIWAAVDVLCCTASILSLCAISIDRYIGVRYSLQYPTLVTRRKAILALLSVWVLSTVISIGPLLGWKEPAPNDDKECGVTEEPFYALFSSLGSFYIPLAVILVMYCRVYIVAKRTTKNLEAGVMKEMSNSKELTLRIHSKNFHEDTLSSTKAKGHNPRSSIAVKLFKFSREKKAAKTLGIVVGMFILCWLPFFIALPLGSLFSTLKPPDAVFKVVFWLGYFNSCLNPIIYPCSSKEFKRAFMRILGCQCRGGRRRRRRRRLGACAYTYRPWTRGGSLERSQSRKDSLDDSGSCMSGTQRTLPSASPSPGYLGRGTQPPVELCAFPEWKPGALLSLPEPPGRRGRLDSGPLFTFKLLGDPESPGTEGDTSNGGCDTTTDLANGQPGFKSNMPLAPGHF
UniProt P23944: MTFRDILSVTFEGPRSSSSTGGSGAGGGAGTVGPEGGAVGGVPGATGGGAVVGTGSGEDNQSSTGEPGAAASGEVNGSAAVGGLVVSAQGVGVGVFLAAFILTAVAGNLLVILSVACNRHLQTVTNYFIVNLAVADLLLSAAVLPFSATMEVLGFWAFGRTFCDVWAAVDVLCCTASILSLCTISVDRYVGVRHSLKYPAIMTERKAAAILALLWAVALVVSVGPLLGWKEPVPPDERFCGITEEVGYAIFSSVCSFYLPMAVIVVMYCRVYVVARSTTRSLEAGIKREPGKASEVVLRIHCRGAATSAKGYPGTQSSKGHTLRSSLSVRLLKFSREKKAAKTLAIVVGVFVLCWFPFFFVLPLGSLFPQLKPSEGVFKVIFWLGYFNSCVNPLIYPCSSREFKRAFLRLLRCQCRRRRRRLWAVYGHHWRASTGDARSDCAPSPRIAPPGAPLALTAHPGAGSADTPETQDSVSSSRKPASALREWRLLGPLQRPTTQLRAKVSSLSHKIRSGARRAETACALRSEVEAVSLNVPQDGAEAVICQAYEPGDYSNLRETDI
UniProt P43140: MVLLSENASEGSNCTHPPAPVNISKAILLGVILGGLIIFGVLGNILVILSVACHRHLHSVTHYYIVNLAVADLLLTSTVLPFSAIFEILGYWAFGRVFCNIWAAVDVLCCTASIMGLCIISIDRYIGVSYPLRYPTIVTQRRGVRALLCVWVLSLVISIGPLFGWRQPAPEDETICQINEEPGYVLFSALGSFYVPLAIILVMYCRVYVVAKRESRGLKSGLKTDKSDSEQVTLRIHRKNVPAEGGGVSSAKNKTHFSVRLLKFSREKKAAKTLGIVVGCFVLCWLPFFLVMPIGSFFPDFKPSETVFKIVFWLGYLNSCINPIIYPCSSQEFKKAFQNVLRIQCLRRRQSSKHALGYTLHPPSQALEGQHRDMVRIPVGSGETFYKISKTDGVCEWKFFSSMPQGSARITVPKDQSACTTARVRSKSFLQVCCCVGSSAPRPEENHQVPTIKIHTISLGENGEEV

This assay addresses Adrenergic receptor alpha-1 (Rattus norvegicus, UniProt P15823+P23944+P43140). The assay is described as follows: Binding affinity against alpha-1 adrenergic receptor in rat using [3H]prazosin as radioligand. The procedure, abridged:
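Male Sprague-Dawley rat liver membranes (50-150 µg/mL protein) in 50 mM Tris-HCl pH 7.7 with [3H]prazosin. Incubated 50 min at 25 °C; phentolamine 10^-5 M defined nonspecific binding. At least four concentrations from 10^-10 to 10^-3 M, each in duplicate. Bound ligand was filtered and counted by scintillation.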

`Clc1cccc(Cl)c1NC1=NCCN1` [CLONIDINE] had a Ki of 520 nM.

The Ki is a dissociation constant, usually derived from enzyme kinetics or from competition with a known ligand.
